The entries are a selection whose mix differs from that of the whole data set. Inconclusive results are not listed. Activity calls are given as the source filed them. Calls come from the whole dose curve; as a rule, active = well fitted inhibition curve with a large enough effect; inconclusive = small, poorly fitted or top-dose-only effect; inactive = no such curve, though single readings can be large or run the other way.

The experiment is described as follows: Primary qHTS for Identification of Small Molecule Inhibitors of Huntingtin Promoter Activity. Note: nearly all actives have a fitted effect of over 50% in size. To be noted: HEK293 HTT promoter firefly luciferase reporter (activity 0% = vehicle and -100% = no light), 24 h; at 57.5 µM (top of the series) unless noted. An excerpt: Assay Provider: Russell L. Margolis M.D.
Department Neurology, Johns Hopkins University School of Medicine, Baltimore, MD
Huntington's Disease (HD) is a neurodegenerative disorder caused by a CAG repeat expansion in exon 1 of huntingtin (HTT). While there are currently no disease-modifying treatments for HD, recent efforts have focused on development of nucleotide-based therapeutics to lower HTT expression. As an alternative to siRNA or oligonucleotide methods, we hypothesized that suppression of HTT expression might be accomplished by small molecules that either (1) directly decrease HTT expression by suppressing HTT promoter activity or (2) indirectly decrease HTT expression by increasing the promoter activity of HTT-AS, the gene antisense to HTT that appears to inhibit expression of HTT.
We developed and employed a high throughput screen for modifiers of HTT and HTT-AS promoter activity using luminescent reporter HEK293 cells; of the 52,041 compounds tested, we identified 898 replicable hits. We used a rigorous stepwise approach to assess compound toxicity and the capacity of the compounds to specifically lower huntingtin protein in 5 different cell lines, including HEK293 cells, HD lymphoblastoid cells, mouse primary neurons, HD iPSCs differentiated into cortical-like neurons, and HD hESCs. We found no compounds which were able to lower huntingtin without lowering cell viability in all assays, though the potential efficacy of a few compounds at non-toxic doses could not be excluded.
SEQUENCE No. (1, 2, 3, etc.); […] (e.g., Cells, Incubation, Reagent, etc.); VALUE and DESCRIPTION.
1; Reagent; 4 uL; 2,500 Hek293 luciferase reporter cells per wells
3; Compound; 23 nL; Control inhibitor / compound library
5; Reagent; 2.5 uL; Firefly Luc reagent; Dual-Glo Luciferase Reporter Assay System (Promega)
6; Time; 10 min; room temperature incubation
7; Detection; Luminescence; FLuc
NOTES (numbers refer to sequence above)
1; High-throughput screening, measuring luminescence from a Hek293 luciferase reporter, was performed in 1,536 well white-walled tissue-culture treated plates. 2,500 cells were plated in 4 µL of Opti-MEM per well using a Multidrop Combi Reagent Dispenser (ThermoFisher).
2; Assay plates were cultured for 24 hours.
3; Control inhibitor (PTC124; final concentration of 50 uM) and compound library (at final concentrations of 460 nM - 57.5 uM) were added to the assay plate using the Kalypsis Pintool Robotic System equipped with 1536 pinheads.
4; Cells were then incubated for 24 hours at 37 degrees C prior to luminescence measurements.
5; In all cases, luminescence was measured using the Dual-Glo Luciferase Reporter Assay System (Promega) following the manufacturer's instructions.
6; Room temperature incubation.
7; Luminescence signal was obtained using the PerkinElmer ViewLux plate reader. Results were normalized to vehicle control (0% activity) and zero RLU (-100% activity).
Background: In qHTS, concentration-response curves come from the screen itself.
For `CN(C(=O)Cc1ccc(Cl)c(Cl)c1)[C@H]1CC[C@@]2(CCCO2)C[C@@H]1N1CCCC1`, the activity change, negative = inhibition was inactive: -1.3%.

In the case of `NC(=O)Nc1ccc([As](=O)(O)O)cc1`, the activity change, negative = inhibition is inactive: 0.601%.

Turning to `CCn1c(=O)n([C@@H]2CCN(CC3CCCCCCC3)C[C@@H]2CO)c2ccccc21`, the activity change, negative = inhibition is inactive: -2.68%.

Regarding `CCNC(C)Cc1ccc2c(c1)OCO2` (stereo not given), the activity change, negative = inhibition is inactive: -1.05% [at 116 µM].

With `CN(C(=O)Cc1ccccc1)[C@H]1CC[C@@]2(CCCO2)C[C@@H]1N1CCCC1`, the activity change, negative = inhibition was inactive: 10.7%.

The values are drawn from PubChem BioAssay AID1508623 (National Center for Advancing Translational Sciences (NCATS), 2021).
